The target of this experiment is T1, human trkC extracellular domain fused to immunoglobulin constant domains (receptor immunoadhesin) (human, UniProt Q16288 32-429).
T1 construct: extracellular domain
Briefly: competitive displacement binding on human trkC immunoadhesin.

These results are taken from US7452863 (Genentech, dated 2008).

B1: NGF126 (SEQ ID NO:10) (ligand)
chain: SSSHPIFHRGEFSVCDSESLWVTDKTTATDIKGKEVMVLGEVNINNSVFKQYFFETKCRDPNPVDSGCRGIDSKHWNSYCKTTQTYVKALTMDGKQAAWRFIRIDTACVCVLSRKAVRRA
As for B1, the “fold improvement in binding to trkC compared to NGF12” value stood at 4.5 fold.
